# Yeast mating assay 2: variants of the scFv Ab-91

Data: MIT Lincoln Laboratory AlphaSeq set, Engelhart et al. 2022, doi:10.1038/s41597-022-01779-4, as distributed in FLAb.

All variants were tested on one target, the spike HR2 peptide PDVDLGDISGINAS (SARS-CoV-2).

Ab-91 is the parent antibody, in scFv form: VL, then a 15-residue (Gly4Ser)3 linker, then VH. The light chain is unchanged in all variants.
VL: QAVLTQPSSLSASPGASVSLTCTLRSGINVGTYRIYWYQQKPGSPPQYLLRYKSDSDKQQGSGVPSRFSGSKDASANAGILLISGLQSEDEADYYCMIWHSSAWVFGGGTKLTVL
VH: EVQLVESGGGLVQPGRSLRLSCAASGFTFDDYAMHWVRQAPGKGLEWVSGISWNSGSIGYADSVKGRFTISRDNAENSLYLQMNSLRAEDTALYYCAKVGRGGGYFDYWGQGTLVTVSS

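The parent was found by panning a naive human phage display library on the peptide. In library AAYL51, one, two or three CDR residues were substituted; doubles and triples were drawn at random. The assay is AlphaSeq: two haploid yeast populations carry antibody and antigen on their surface. Pairs that bind mate more often; barcode pairs of the diploids are counted by sequencing. Scores were corrected for input abundance and mapped to Kd with protein pairs of known affinity run in the same pool. There are three technical replicates.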

Positions count from residue 1 of the parent VH; M34G puts G in place of M.
Affinities are written as log10 Kd with Kd in nM; a lower number is a better binder.
"ND" means that the variant was in the library but no mating with the target was seen in that replicate; the authors take this as a sign of poor binding, and no number exists.
For reference, the parent read 1.86 as the reference entry and 0.88 as a member of this library.
Nonspecific signal, from three strains lacking the peptide, appeared in 21% of pairings of library AAYL51, centred on 4.54 (5% of these signals below 3.26); values are not corrected for it. Also given: how often the same scFv was detected with the empty control strains, with their mean in brackets.

| changes | log10 Kd (nM) by replicate | control signals |
|---|---|---|
| M34G S52L S63K | 4.77 4.30 5.12 | 4/9 (4.58) |
| M34V S52Y S55V | ND ND ND | 0/9 |
| F27V G103F D107S | ND ND ND | 0/9 |
| S63Y V64M Y108W | 4.38 3.76 4.18 | 4/9 (4.39) |
| F27Y S52W Y60Q | ND ND ND | 0/9 |
| N54Y S55N F106T | ND ND ND | 2/9 (4.40) |
| I51Q D107M Y108V | ND ND ND | 0/9 |
| F27A S57F D62H | 3.97 ND 5.04 | 2/9 (4.19) |
| S55H I58F G103S | ND ND ND | 0/9 |
| G50L D107Y | ND 3.09 ND | 1/9 (3.01) |
| G26A G100H | 4.44 ND ND | 0/9 |
| G50W V64C Y105K | ND ND ND | 0/9 |
| H35G S52Q D107K | ND ND ND | 3/9 (4.76) |
| D30F M34Y V99M | ND 3.51 ND | 1/9 (3.25) |
| I58E D62L S63V | 2.91 2.77 2.71 | 4/9 (4.59) |
| M34R | 4.52 5.84 ND | 5/9 (5.01) |
| G56P S63F G103V | ND 6.13 ND | 6/9 (5.06) |
| F29Q G50V F106G | ND ND ND | 0/9 |
| A33S V99S G104M | ND 5.12 ND | 1/9 (4.73) |
| G50Q I51E G103Q | ND 5.35 ND | 5/9 (4.54) |
| Y32L N54M G103V | ND ND ND | 1/9 (4.31) |
| A33R M34K F106G | 4.46 5.13 5.77 | 5/9 (4.94) |
| G59I D62K V99T | ND ND ND | 1/9 (3.93) |
| V99L G104N D107L | ND ND ND | 0/9 |
| F27N I51G A61Y | 4.26 ND 5.17 | 3/9 (4.98) |
| G50S F106K | ND 5.37 ND | 3/9 (4.48) |
| G26W V99N | 4.85 3.09 ND | 2/9 (4.20) |
| H35G G56C S63L | ND 4.11 ND | 1/9 (3.98) |
| Y60M K65V | 2.69 2.61 2.80 | 6/9 (5.02) |
| K65M G104R | 3.82 ND 3.65 | 1/9 (2.33) |
| A33P W53L Y60M | ND ND ND | 3/9 (3.95) |
| G59N D62K Y105D | ND ND ND | 0/9 |

Repeated from above, the 4 best binders with a signal in all replicates:

{"changes": "Y60M K65V", "log10 Kd (nM) by replicate": "2.69 2.61 2.80", "control signals": "6/9 (5.02)"}
{"changes": "I58E D62L S63V", "log10 Kd (nM) by replicate": "2.91 2.77 2.71", "control signals": "4/9 (4.59)"}
{"changes": "S63Y V64M Y108W", "log10 Kd (nM) by replicate": "4.38 3.76 4.18", "control signals": "4/9 (4.39)"}
{"changes": "M34G S52L S63K", "log10 Kd (nM) by replicate": "4.77 4.30 5.12", "control signals": "4/9 (4.58)"}